Measurements as given in paper PMC6314479 (Nature chemical biology, 2017).

Chains of the proteins cited; added tags and fusions are not shown.
UniProt Q93009, whole entry: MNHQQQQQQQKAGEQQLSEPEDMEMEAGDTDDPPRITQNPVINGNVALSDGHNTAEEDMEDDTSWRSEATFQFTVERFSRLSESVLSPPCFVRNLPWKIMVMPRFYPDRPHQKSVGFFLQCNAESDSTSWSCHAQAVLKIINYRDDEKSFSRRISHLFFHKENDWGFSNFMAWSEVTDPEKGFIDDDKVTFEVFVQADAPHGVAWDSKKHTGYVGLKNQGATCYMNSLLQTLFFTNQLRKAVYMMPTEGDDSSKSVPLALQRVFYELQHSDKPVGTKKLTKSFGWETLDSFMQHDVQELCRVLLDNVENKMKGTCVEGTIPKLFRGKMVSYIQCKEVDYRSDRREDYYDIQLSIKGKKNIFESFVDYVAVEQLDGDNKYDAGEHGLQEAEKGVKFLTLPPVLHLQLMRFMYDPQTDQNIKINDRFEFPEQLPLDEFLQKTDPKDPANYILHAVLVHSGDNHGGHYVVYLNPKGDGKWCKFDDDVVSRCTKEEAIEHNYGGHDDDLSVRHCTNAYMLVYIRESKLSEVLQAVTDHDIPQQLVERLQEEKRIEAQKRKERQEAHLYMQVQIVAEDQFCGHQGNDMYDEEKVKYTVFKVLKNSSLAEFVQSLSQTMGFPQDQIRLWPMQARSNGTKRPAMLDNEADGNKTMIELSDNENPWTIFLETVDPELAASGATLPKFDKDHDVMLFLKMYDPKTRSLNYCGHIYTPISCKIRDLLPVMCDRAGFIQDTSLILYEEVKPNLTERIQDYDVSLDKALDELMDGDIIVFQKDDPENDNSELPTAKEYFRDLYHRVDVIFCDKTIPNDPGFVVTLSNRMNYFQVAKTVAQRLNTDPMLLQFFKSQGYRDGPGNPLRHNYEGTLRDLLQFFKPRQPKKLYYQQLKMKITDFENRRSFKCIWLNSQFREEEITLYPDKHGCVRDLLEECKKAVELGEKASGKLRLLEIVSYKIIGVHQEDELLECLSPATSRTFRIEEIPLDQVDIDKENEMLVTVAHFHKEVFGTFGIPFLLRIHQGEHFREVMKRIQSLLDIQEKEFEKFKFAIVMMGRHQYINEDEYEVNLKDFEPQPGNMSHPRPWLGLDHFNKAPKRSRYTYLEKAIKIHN

Assays:
[1] = target: USP7 (Homo sapiens, UniProt Q93009); assay: MALDI-TOF DUB assay with diubiquitin as substrate, dose response; format: biochemical; conditions: read-out: USP7 IC50
[2] = tested on: FLT3; assay: FLT3 degradation in HEK 293T cells; format: cell-based, human
[3] = tested on: Ba/F3-FLT3-ITD, MOLM13-luc+ and MOLM14 cells; assay: Drug combination study, combination index; format: cell-based; conditions: with midostaurin or crenolanib, fixed-ratio; CI<1 = synergy
[4] = tested on: Ba/F3-FLT3-ITD cells expressing TKD point mutations; assay: Proliferation of Ba/F3-FLT3-ITD cells expressing TKD point mutations; format: cell-based, murine; conditions: approximately 24 hr treatment

For HBX19818, the IC50 [1] was 57 µM, the “concentration needed for FLT3 degradation relative to mutant FLT3-driven cells” value [2] was “approximately 2 fold” and the “combination index analysis of anti-proliferative effects” value [3] was “synergistic”. For the same substance, the “potency against TKD point mutants versus Ba/F3-FLT3-ITD cells” value [4] was “equipotent”.
